ChEMBL document CHEMBL4706517, “Discovery of novel berberine derivatives with balanced cholinesterase and prolyl oligopeptidase inhibition profile” (Eur J Med Chem, 2020)

Amino acid sequences for entries named in this document (tags omitted). A change or cut given only in a name is not applied to a line headed by its entry.
UniProt P22303: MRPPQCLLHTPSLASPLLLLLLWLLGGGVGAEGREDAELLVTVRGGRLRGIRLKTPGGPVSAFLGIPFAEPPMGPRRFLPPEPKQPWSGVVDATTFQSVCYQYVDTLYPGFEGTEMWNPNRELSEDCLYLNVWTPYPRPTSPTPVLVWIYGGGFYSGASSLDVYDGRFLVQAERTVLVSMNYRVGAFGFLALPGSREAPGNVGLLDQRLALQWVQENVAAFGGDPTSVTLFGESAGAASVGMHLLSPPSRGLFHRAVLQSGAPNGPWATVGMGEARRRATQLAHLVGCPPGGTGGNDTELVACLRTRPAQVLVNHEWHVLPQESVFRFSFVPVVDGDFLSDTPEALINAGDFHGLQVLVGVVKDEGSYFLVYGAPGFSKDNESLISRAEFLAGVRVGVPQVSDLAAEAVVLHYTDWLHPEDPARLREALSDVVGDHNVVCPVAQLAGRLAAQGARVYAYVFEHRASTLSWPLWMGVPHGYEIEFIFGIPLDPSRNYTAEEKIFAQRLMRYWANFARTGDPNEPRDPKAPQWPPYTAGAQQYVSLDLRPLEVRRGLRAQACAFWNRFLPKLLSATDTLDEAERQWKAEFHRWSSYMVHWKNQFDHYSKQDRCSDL

Biological target: Acetylcholinesterase (Homo sapiens, UniProt P22303)
Test: Inhibition of recombinant human acetylcholinesterase using acetylthiocholine iodide as substrate preincubated with enzyme for 5 mins followed by substrate addition and measured at 2 mins interval by Ellman's method

`COc1ccc2cc3[n+](cc2c1OC)CCc1cc2c(cc1-3)OCO2.[Cl-]` [BERBERINE CHLORIDE] showed an IC50 of 17.4 µM.
